From PubChem BioAssay AID488837 (National Center for Advancing Translational Sciences (NCATS), 2010)
Only a part is listed here, and it is no random draw. Active and inactive are the calls of the source. The call rests on the fitted dose curve; in most records, active means well fitted inhibition curve with a large enough effect; inconclusive means small, poorly fitted or top-dose-only effect, or effect the other way; inactive means flat fitted curve, though single readings scatter.

By UniProt entry, the sequences of proteins in these tests, tags left out. Where a name states a change or a piece, a line headed by the entry shows the natural chain unless it says otherwise.
UniProt O00167: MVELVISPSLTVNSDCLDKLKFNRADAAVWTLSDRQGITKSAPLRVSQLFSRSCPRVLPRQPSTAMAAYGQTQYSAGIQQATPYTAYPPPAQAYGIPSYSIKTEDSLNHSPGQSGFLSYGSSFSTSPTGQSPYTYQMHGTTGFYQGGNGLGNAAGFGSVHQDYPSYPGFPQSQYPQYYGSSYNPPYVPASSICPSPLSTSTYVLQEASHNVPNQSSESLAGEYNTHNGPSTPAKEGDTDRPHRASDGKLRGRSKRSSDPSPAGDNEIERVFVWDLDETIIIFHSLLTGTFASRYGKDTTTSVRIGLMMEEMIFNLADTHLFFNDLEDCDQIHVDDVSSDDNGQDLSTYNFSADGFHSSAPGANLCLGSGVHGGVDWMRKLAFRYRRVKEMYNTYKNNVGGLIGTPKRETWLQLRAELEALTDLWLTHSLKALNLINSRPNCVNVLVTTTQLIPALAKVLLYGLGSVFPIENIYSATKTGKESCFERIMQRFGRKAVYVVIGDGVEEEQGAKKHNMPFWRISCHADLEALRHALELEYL

Biological target: Protein phosphatase EYA2 (Homo sapiens) (UniProt O00167)
Experiment: qHTS Assay for Inhibitors of the Phosphatase Activity of Eya2
Conditions: recombinant Eya2, OMFP fluorescence dephosphorylation (OMFP is methylfluorescein phosphate); at 76.9 µM (top of the series) unless noted
Text: The Eya family of proteins are essential co-activators of the Six1 transcription factor. Six1 is a developmental gene that is abnormally re-expressed in a large percentage of breast cancers. This over-expression plays a causal role in the initiation and metastatic development of breast cancers. The Eya family of proteins was also found to contain a unique HAD phosphatase domain with protein tyrosine phosphatase activity which can potentially play a role in Six1-mediated breast tumorigenesis. […] We have developed and optimized a 1536 well fluorescence-based HTS assay targeting the phosphatase activity of Eya2. Inhibitors found against Eya2 could serve as potential therapeutic tools to inhibit Six1-mediated breast tumorigenesis and to increase the efficiency of radiation and certain chemo therapy. These inhibitors could also be used as chemical probes to study the function of Eya2's phosphatase activity and its role in Six1-mediated breast tumorigenesis.
The Eya2 enzyme was kindly provided by the laboratory of Dr. Rui Zhao. The 3-O-methyl-fluorescein phosphate (OMFP) substrate and all buffer reagents were purchased from Sigma Aldrich. qHTS Assay Setup: 1. Buffer- 50 mM HEPES pH 7.5, 50 mM NaCl, 5 uM MgCl2, 0.05% BSA, 1 mM DTT. 2. OMFP Stock- 10 mM solution prepared in 100% DMSO and stored in single use aliquots at -20C. Assay Procedure- 1. Dispense 1.5 ul per well of Eya2 at 0.2 uM in black medium binding 1536 well Greiner plate 2. Transfer 23 nl of compound and control compound (EGTA) to plate 3. Incubate at ambient for 10 minutes 4. Dispense 1.5 ul per well of OMFP at 50 uM 5. Incubate at ambient for 10 minutes 6. Read on ViewLux using Excitation = 485 nm, Emission = 525 nm
On the % scale 0 is the no-effect control and ±100 the full control effect.

Row | SMILES | activity, negative = inhibition
1 | O=C(OC1CN2CCC1CC2)C12CC3CC(CC(C3)C1)C2 (configuration not stated) | inactive: -0.661%
2 | Cc1cc(=O)[nH]c(N[N+](=O)[O-])n1 | inactive: 5.71%
3 | Cc1c2c(nc3ccccc13)SC(C(Cl)Cl)C2 (configuration not stated) | inactive: -9.27%
4 | COc1ccc2nc(NP(=O)(c3ccccc3)c3ccccc3)sc2c1 | inactive: 8.96%
5 | COc1cc(I)ccc1[As](=O)(O)O | inactive: 14.6%
6 | COc1ccc(N/C(=N/P(=O)(N2CCOCC2)N2CCOCC2)N2CCOCC2)cc1 | inactive: 10.9%
7 | C[As](=O)(O)c1cccc(C(=O)O)c1 | inactive: 3.1%
8 | COc1cc(C(=O)NCC2(N3CCOCC3)CCCCC2)ccc1OCC(C)C | inactive: -4.28%
9 | Cc1ccc2nc3c(c(C)c2c1)CC(C(Cl)Cl)S3 (configuration not stated) | inactive: -3.4%
10 | Cc1ccc(OP(=O)(Nc2ccc([N+](=O)[O-])cn2)Oc2ccc(C)cc2)cc1 | inactive: 11.7%
11 | CC(C)c1ccc(OP(=O)(Nc2ccccn2)Oc2ccccc2F)cc1 (configuration not stated) | inactive: -13.6%
12 | ClCCSc1nnc(-c2cccnc2)o1 | inactive: -1.53%
13 | CCN(CC)C(=S)SC(NC=O)C(Cl)(Cl)Cl (configuration not stated) | inactive: 3.55%
14 | CC(C)NC(=O)NP(=O)(Oc1ccccc1)Oc1ccccc1 | inactive: -1.03%
15 | O=[N+]([O-])c1cc([N+](=O)[O-])c(-c2ccn[nH]2)s1 | inactive: 4.77%
16 | CCOC(=O)Nc1ccc([As](=O)(O)O)c(O)c1 | inactive: -22.5%
17 | CCCCOc1ccc(C(=O)NCC2(N3CCCCC3)CCCCC2)cc1OC | inactive: -0.293%
18 | Cc1cc(SC(NC(=O)c2ccccc2)C(Cl)(Cl)Cl)nc(C(C)C)n1 (configuration not stated) | inactive: -12%
19 | CCOC(=O)Nc1cccc([As](=O)(O)O)c1 | inactive: -0.644%
20 | O=[N+]([O-])c1ccc(Nc2ccc(Oc3ccc([N+](=O)[O-])cc3[N+](=O)[O-])cc2)c([N+](=O)[O-])c1 | inactive: -15.4%
21 | Cc1cc(SC(NC=O)C(Cl)(Cl)Cl)ncn1 (configuration not stated) | inactive: 5.39%
22 | O=P(Nc1ccccn1)(c1cccc2ccccc12)c1cccc2ccccc12 | inactive: -2.31%
23 | COP1(=S)c2c(C)nn(CCC#N)c2N=C(c2ccc(F)cc2)N1C (configuration not stated) | inactive: -3.41%
24 | O=C(COc1ccccc1)OC1CN2CCC1CC2 (configuration not stated) | inactive: 21.8%
25 | O=C(Nc1ccncc1[N+](=O)[O-])c1ccc([N+](=O)[O-])cc1[N+](=O)[O-] | inactive: 13.9%
26 | CCOC(=O)c1ccc(NC(=O)C(C)(CCl)SC)cc1 (configuration not stated) | inactive: -0.135%
27 | O=C(OC1CN2CCC1CC2)c1cccc([N+](=O)[O-])c1 (configuration not stated) | inactive: 3.32%
